The target in assay [1] is T1, Galectin-3 (Homo sapiens, UniProt P17931).
T1 construct: made in house; host or cells: Escherichia coli SoluBL21
The assay can be described thus: GST pulldown of in vitro translated radiolabeled TRIMs with GST-Galectin-3. The assay is classed as binding. Conditions: in vitro translated 35S-Myc-HA-TRIMs, no ULK1 added. The text has this:
(§1) GST-fusion proteins were expressed in Escherichia coli SoluBL21 (Amsbio). GST fusion proteins were purified and immobilized on glutathione-coupled sepharose beads (Amersham Bioscience, Glutathione-sepharose 4 Fast Flow) and pull-down assays with in vitro translated [^35S]-labeled proteins were done as described previously (Pankiv et al., 2007). The [^35S] labeled proteins were produced using the TNT T7 Quick Coupled Transcription/Translation System (Promega) in the presence of [^35S] L-methionine. The proteins were eluted from washed beads by boiling in SDS-PAGE gel loading buffer. separated by SDS-PAGE, and radiolabeled proteins were detected in a Fujifilm bioimaging analyzer BAS-5000 (Fuji).

Protein sequences, listed by entry. Tags and fused reporters are not part of them.
UniProt P17931, whole entry: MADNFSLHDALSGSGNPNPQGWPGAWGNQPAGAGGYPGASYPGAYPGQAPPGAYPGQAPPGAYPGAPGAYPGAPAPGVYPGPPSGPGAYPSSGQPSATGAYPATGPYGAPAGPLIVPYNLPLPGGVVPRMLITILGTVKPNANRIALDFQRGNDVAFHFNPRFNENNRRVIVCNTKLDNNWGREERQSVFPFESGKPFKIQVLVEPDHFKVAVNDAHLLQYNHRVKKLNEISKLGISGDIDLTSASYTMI

In assay [2] the target is T2, Galectin-8 (Homo sapiens, UniProt O00214).
T2 construct: made in house; host or cells: Escherichia coli SoluBL21
T2 sequence (O00214 1-359 isoform O00214-2): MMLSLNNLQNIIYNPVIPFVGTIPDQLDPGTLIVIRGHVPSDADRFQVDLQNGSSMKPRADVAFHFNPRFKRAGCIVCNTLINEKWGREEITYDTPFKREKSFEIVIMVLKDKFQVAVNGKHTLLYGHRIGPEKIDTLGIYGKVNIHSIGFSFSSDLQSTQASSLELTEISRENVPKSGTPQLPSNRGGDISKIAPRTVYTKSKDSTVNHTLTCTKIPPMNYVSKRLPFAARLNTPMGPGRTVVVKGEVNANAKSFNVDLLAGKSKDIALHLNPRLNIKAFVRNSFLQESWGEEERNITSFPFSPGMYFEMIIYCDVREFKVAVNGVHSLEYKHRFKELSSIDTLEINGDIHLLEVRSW
The experiment in a line: GST pulldown of in vitro translated radiolabeled TRIMs with GST-Galectin-8. Format: binding. Conditions: in vitro translated 35S-Myc-HA-TRIMs.
Description: as §1

B1: TRIM23: TRIM (tripartite motif) protein tested in GST-Galectin pulldowns (protein, UniProt P36406 1-574, looked up)
E3 ubiquitin-protein ligase …: MATLVVNKLGAGVDSGRQGSRGTAVVKVLECGVCEDVFSLQGDKVPRLLLCGHTVCHDCLTRLPLHGRAIRCPFDRQVTDLGDSGVWGLKKNFALLELLERLQNGPIGQYGAAEESIGISGESIIRCDEDEAHLASVYCTVCATHLCSECSQVTHSTKTLAKHRRVPLADKPHEKTMCSQHQVHAIEFVCLEEGCQTSPLMCCVCKEYGKHQGHKHSVLEPEANQIRASILDMAHCIRTFTEEISDYSRKLVGIVQHIEGGEQIVEDGIGMAHTEHVPGTAENARSCIRAYFYDLHETLCRQEEMALSVVDAHVREKLIWLRQQQEDMTILLSEVSAACLHCEKTLQQDDCRVVLAKQEITRLLETLQKQQQQFTEVADHIQLDASIPVTFTKDNRVHIGPKMEIRVVTLGLDGAGKTTILFKLKQDEFMQPIPTIGFNVETVEYKNLKFTIWDVGGKHKLRPLWKHYYLNTQAVVFVVDSSHRDRISEAHSELAKLLTEKELRDALLLIFANKQDVAGALSVEEITELLSLHKLCCGRSWYIQGCDARSGMGLYEGLDWLSRQLVAAGVLDVA
For the molecule B1, the “binding to GST-Galectin-3 in GST pulldown” value in assay [1] is reported as “bound”. In addition, the “binding to GST-Galectin-8 in GST pulldown” value in assay [2] is listed as “bound”.
